This is an account of results in PubChem BioAssay AID504692 (The Scripps Research Institute Molecular Screening Center, 2011).

By UniProt entry, the sequences of proteins in these tests, tags left out.
UniProt P47898, whole entry, looked up: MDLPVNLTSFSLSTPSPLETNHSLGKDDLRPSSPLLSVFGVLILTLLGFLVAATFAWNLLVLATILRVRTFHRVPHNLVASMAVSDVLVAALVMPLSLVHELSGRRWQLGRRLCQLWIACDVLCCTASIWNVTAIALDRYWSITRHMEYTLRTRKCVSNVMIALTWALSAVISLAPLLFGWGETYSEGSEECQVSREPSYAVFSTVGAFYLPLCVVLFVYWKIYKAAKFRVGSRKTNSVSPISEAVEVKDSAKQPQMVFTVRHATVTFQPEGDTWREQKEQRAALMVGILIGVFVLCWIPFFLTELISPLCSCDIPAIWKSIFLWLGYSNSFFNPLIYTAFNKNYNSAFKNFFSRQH

Structures are written as SMILES. The entries are a selection whose mix differs from that of the whole data set. The source made the active and inactive calls. No stated cut-off is given here; in the data, active means activation mostly above about 9.5% (no sharp cut-off); inactive means mostly below about 7.6%.

This test addresses 5-hydroxytryptamine receptor 5A (Homo sapiens) (UniProt P47898). The experiment in a line: HTR5A agonists in luminescence cell assay, primary screen, counter-screen for OPRM1-OPRD1 heterodimer agonist project, full-deck HTS (AID 504692).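 Further: 0% = cells with vehicle only and 100% = reference agonist.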 The settings on record: cell-based, at 9.3 µM, active compounds read high. (A counterscreen serves to expose hits that act by an unwanted route or on another target.)
In the case of `O=P(Nc1nccs1)(Oc1ccccc1)Oc1ccccc1`, the activation was inactive: 8.31%.
As for `CC(C)c1ccc(NC(=O)C2CC(=O)Nc3nc4ccccc4n32)cc1` (centres undefined), the activation is inactive: -2.74%.
As to `CCc1nc2ccccc2n1CC(=O)Nc1cc(C)on1`, the activation was inactive: 7.1%.
For `Cc1nc2ccccc2n1CC(=O)N/N=C/c1cccnc1`, the activation was inactive: 4.53%.
The same measure for `CCN(CC)CCn1c(C)nc2ccccc21`: inactive: 5.09%; for `Cn1c(=O)c2c(ncn2CC(=O)N2CCN(S(=O)(=O)c3ccc(Cl)cc3)CC2)n(C)c1=O`: inactive: 1.42%.
The same measure for `O=P(Nc1nccs1)(c1ccccc1)c1nc2ccccc2s1` (centres undefined): inactive: 0.32%; for `CCOC(=O)c1ccccc1NC(=O)Cn1cnc2c1c(=O)n(C)c(=O)n2C`: inactive: 2.66%; for `COCCN1CCn2c(nc3cc(NC(=O)NC4CCCCC4)ccc32)C1`: inactive: -0.8%.
As for `NC(=O)Cn1c(-c2nonc2N)nc2ccccc21`, the figure is inactive: 1.59%; as for `Cc1ccc2c(c1)C1CN(C)CCC1N2C(=O)c1cn(-c2ccccc2)nc1-c1ccccc1` (centres undefined), inactive: -1.15%; as for `Nc1nonc1-c1nc2ccccc2n1CC(=O)N/N=C/c1ccc(-c2cccc(C(=O)O)c2)o1`, inactive: -3.11%.
As for `O=C(O)COc1ccc([As](=O)(O)O)cc1[N+](=O)[O-]`, the activation is inactive: 2.77%.
Turning to `Nc1ccccc1[As](=O)(O)c1ccccc1`, the activation is inactive: 7.78%.
The same measure for `O=C(Cn1cnc2ccccc21)N/N=C/c1ccc([N+](=O)[O-])cc1`: inactive: 0.91%; for `CCOC(=O)CNC(=S)N1CCn2c(nc3ccccc32)C1`: inactive: 0.72%; for `Cn1c(=O)c2c(ncn2CC(=O)N/N=C/c2cn[nH]c2-c2ccc(F)cc2)n(C)c1=O`: inactive: -1.3%.
The same measure for `Cn1c(=O)c2c(ncn2CC(=O)N/N=C/C=C/c2ccco2)n(C)c1=O`: inactive: -5.72%.
Turning to `O=C(C1CCN(S(=O)(=O)c2cnc[nH]2)CC1)N1CCn2c1nc1ccccc12`, the activation was inactive: -11.2%.
Take `CCOC(=O)C1CCN(C(=O)CC2C(=O)N(Cc3ccccc3)C(C)c3nc4ccccc4n32)CC1` (centres undefined): the activation was inactive: -0.16%.
As for `Cc1nc2ccccc2n1CC(=O)NCc1ccccc1`, the figure is inactive: 3.1%; as for `COc1cccc(C(=O)CSc2nc3ccccc3n2CC(=O)N(C(C)C)C(C)C)c1`, inactive: -3.49%.
As for `Cn1c(=O)n(Cc2ccc(F)cc2)c(=O)c2c1nc1n2CCN1Cc1ccco1`, the activation was inactive: -4.09%.
The same measure for `CC(C)Sc1nc2ccccc2n1CC(=O)NCc1ccc2c(c1)OCO2`: inactive: -0.12%.
With `N=c1n(CCN2CCOCC2)c2ccccc2n1CC(O)COc1ccccc1` (centres undefined), the activation was inactive: -7.24%.
With `NC(=O)CC(NC(=O)Cc1cccc2ccccc12)c1ccc(NC2CCN(Cc3ccccc3)CC2)c([N+](=O)[O-])c1` (centres undefined), the activation is inactive: -3.95%.
The same measure for `NNC(=O)Cn1c(COc2ccc(Cl)cc2)nc2ccccc21`: inactive: -3.34%.
As for `COC(=O)[C@@H](Cc1ccccc1)NC(=O)Cn1cnc2c(SC)nc(N)nc21`, the activation is inactive: 1.35%.
The same measure for `Fc1ccc2c(c1)nnn2C1CCN(Cc2nnnn2C2CCCCC2)CC1`: inactive: 1.99%; for `COC(CNC(=O)CC1C(=O)N(Cc2ccccc2)C(C)c2nc3ccccc3n21)OC` (centres undefined): inactive: 3.19%.
As for `CCN(CC)CCCNC(=S)N1CCn2c(nc3ccccc32)C1`, the figure is inactive: 3.07%.
The same measure for `CCCOP(=S)(Nc1nc(N)cc(=O)[nH]1)OCCC`: inactive: 7.31%.
For the molecule `O=C(CSc1nc2ccccc2n1CC(=O)N1CCOCC1)N1CCCC1`, the activation was inactive: -5.85%.
For `CSCC[C@H](NC(=O)N1CCn2c1nc1ccccc12)C(=O)N1CCCCC1`, the activation is inactive: -2.55%.
As to `Cn1c(=O)n(CCc2ccccc2)c(=O)c2c1nc1n2CCN1Cc1ccco1`, the activation is inactive: 1.86%.
With `C[C@H](NC(=O)N1CCn2c1nc1ccccc12)C(=O)NCc1ccc(F)cc1`, the activation is inactive: 2.84%.
As for `Cc1ccc2c(c1)C1CN(C)CCC1N2C(=O)c1ccccc1NS(=O)(=O)c1cccc(C(F)(F)F)c1` (centres undefined), the figure is inactive: 4.15%.
The same measure for `Oc1ccc(CC2(N3CCCC3)CCCCC2)cc1`: inactive: -3.75%; for `NNC(=O)Cn1cnc2ccccc21`: inactive: 2.38%.
For `O=C(Nc1nc2ccccc2n1CCN1CCOCC1)c1ccccc1`, the activation is inactive: 1.37%.
`O=C(Cn1c(C(F)(F)F)nc2ccccc21)Nc1ccccc1N1CCOCC1`: the activation was inactive: 3.7%.
The same measure for `COc1ccc(CNC(=O)Cn2cnc3c(OCc4ccccc4)ncnc32)cc1`: inactive: 5.03%; for `Cc1ccc(NCCc2c([N+](=O)[O-])cc([N+](=O)[O-])cc2[N+](=O)[O-])cc1`: inactive: 4.36%.
As for `O=C(Cn1c(CO)nc2ccccc21)NCCc1ccccc1`, the figure is inactive: 1.83%; as for `Nc1cccc2c([As](=O)(O)O)cccc12`, inactive: 3.85%.
As for `c1ccc2c(c1)nc1n2CCN1`, the activation is inactive: -4.13%.
Regarding `CC(=O)Nc1nc2ccccc2n1CCN(C)C`, the activation is inactive: 2.43%.
The same measure for `Cc1ccc2c(c1)C1CN(C)CCC1N2C(=S)Nc1ccc(OC(F)F)cc1` (centres undefined): inactive: -5%.
The same measure for `O=C(Cn1cnc2c(NCc3ccccc3)ncnc21)NCC1CCCO1` (centres undefined): inactive: 1.49%.
As for `O=C(Cn1cnc2c(NCc3ccccc3)ncnc21)NCc1ccccn1`, the figure is inactive: 0.92%; as for `CC1CCC2C(=O)N(c3ccc(NC4CCN(Cc5ccccc5)CC4)c([N+](=O)[O-])c3)C(=O)C2C1` (centres undefined), inactive: 2.78%; as for `CC(C)[C@H](NC(=O)N1CCn2c1nc1ccccc12)C(=O)N[C@@H](C(=O)O)c1ccccc1`, inactive: 9.54%.
In the case of `CCCC(=O)Nc1nnc(/C=C/c2ccc(OC)cc2)s1`, the activation is inactive: -1.61%.
As to `CC(=O)Nc1ccc2c(c1)nc1n2CCN(C2CCCCC2)C1`, the activation is inactive: 1.39%.
Regarding `COc1cc(C2NCCC3(OCCO3)C2(C)C)cc(OC)c1OC` (centres undefined), the activation was inactive: 6.88%.
As for `Cn1c(=O)n(CC(N)=O)c2ccccc21`, the figure is inactive: -6.35%; as for `CCN(CC)CCn1c(NC(=O)c2ccc(Cl)cc2)nc2ccccc21`, inactive: 3.02%.
With `Cc1ccc2c(c1)C1CN(C)CCC1N2S(=O)(=O)c1cc(C(F)(F)F)ccc1Cl` (centres undefined), the activation was inactive: 4.77%.
As for `O=C(Cn1c(NCCO)nc2ccccc21)NCC1CCCO1` (centres undefined), the activation was inactive: -4.46%.
